Results taken from patent US20190135818A1 (SHANGHAI INSTITUTE OF MATERIA MEDICA, CHINESE ACADEMY OF …, priority 2016, published 2019).

Test system: human lung cancer NCI-H1581 transplanted tumor
Test: Tumor growth inhibition in tumor-bearing mice (subcutaneously transplanted tumor)
Assay type: in vivo, BALB/cA nude mice
Experimental: Before using, the compound was diluted with 5% Tween80 in normal saline to the desired concentration (light yellow suspension), and was prepared once a week.
The positive control drug: AZD4547 (batch number: Lot: S0902A) was a white powder, and stored at −20° C. in the dark. Before using, the compound was diluted with 1% Tween 80 in normal saline to the desired concentration (white suspension), and was prepared once a week.
Animals: BALB/cA nude mice, male, 3-4 weeks old, produced by Shanghai Institute of Materia Medica, Chinese Academy of Sciences, quality certificate number No. 311613700000120, production license number: SCXK (Shanghai) 2013-0017. Shanghai Drug Administration License No.: SYXK (Shanghai) 2013-0049, the number of animals in each group: 12 in the solvent control group and 6 in the drug-administration group.
Human lung cancer NCI-H1581 cell line (ATCC, Cat. No. CRL-5878). The cell strain was inoculated in the right axilla of the nude mice, and the amount of cells inoculated was 5×10^6/animal to form transplanted tumor, and passaged in vivo in nude mice by 1 generation before use.
The tumor tissue in the vigorous growth period was cut into 1.5 mm^3, and inoculated subcutaneously in the right axilla of the nude mice under aseptic conditions. The diameter of the subcutaneously transplanted in a nude mice was measured with a vernier caliper, and the animals were randomly grouped when the average volume of tumors was about 220 mm^3. […] The solvent control group was given an equal amount of normal saline. The diameter of the transplanted tumor was measured twice a week during the entire experiment, and the body weights of the mice were weighed. The calculation formula of tumor volume (TV) is: TV=1/2×a×b2, where a and b respectively represent the length and width of the tumor. The relative tumor volume (RTV) was calculated based on the measured results and the formula was: RTV=Vt/V0. Where V0 is the tumor volume measured before grouping and dosing (d0), and Vt is the tumor volume at each measurement. […]

Question: With `Cc1c(-c2c3c(N)n[nH]c(=O)c3nn2-c2ccc(NC(=O)/C=C/CN(C)C)cc2)oc2ccc(Cl)cc12` [Compound A26, (2E)-N-{4-[4-amino-3-(5-chloro-3-methyl-1-benzofuran-2-yl)-7-carbonyl-6,7-dihydro-2H-pyrazolo[3,4-d]pyridazin-2-yl]phenyl}-4-(dimethylamino)but-2-enamide] as the compound, how does the “body weight (g) d13” value (A26 50 mg/kg ip qd/13) read?
Answer: 19.9 g

Question: For AZD4547 [reference compound], which “body weight (g) d0” value (AZD4547 12.5 mg/kg po qd/13, d0) is on record?
Answer: 17.3 g

Question: And the “body weight (g) d13” value (AZD4547 12.5 mg/kg po qd/13)?
Answer: 19.9 g
